Measurements taken from patent publication US20130281497A1, “MACROCYCLIC COMPOUNDS AND METHODS OF TREATMENT” (University of Florida Research Foundation, Inc., priority 2010, published 2013).
Marks after values point to notes of the source that are not given here.

System: C2C12 cells
Assay: mRNA induction of osteoblastogenesis markers and BMPs by quantitative real-time PCR
Format: cell-based
Conditions: rhBMP-2 300 ng/ml (reference inducer), mean ± SD
Protocol: Primers were designed using an on-line primer design program (Table 1). (S. Rozen, H. J. Skaletsky, Methods Mol. Biol. 2000, 132, 365-386.) Total RNA was isolated using TRIzol reagent (Life Technologies, MD) according to manufacturer's protocol. The concentration and purity of total RNA were calculated by measuring absorbance at 260 and 280 nm. First strand cDNA was synthesized using 2 μg of total RNA and 1 μM of oligo-dT18 primer and Omniscript Reverse Transcriptase (Qiagen, CA). SYBR green-based quantitative PCR was performed using the Stratagene Mx3000P Real-Time PCR system and Brilliant SYBR Green Master Mix (Stratagene, CA) with 3 μl of first-strand cDNA diluted 1:50 and 20 pmole of primers, according to the manufacturer's protocols. The PCR reaction consisted of three segments. The first segment (95° C. for 10 min) activated the polymerase; the second segment included 3-step cycling (40 cycles) at 94° C. for 40 sec (denaturation), 60° C. for 40 sec (annealing), and 72° C. for 1 min (extension); the third segment was performed to generate PCR product temperature dissociation curves (‘melting curves’) at 95° C. for 1 min, 55° C. for 30 sec, 95° C. for 30 sec. All reactions were run in triplicate, and data were analyzed by the 2^−ΔΔCT method (K. J. Livak, T. D. Schmittgen, Methods 2001, 25, 402-408.). GAPDH was used as the control gene. Significance was determined by Student's t-test with GAPDH-normalized 2^−ΔΔCT values. Differences were considered significant when P<0.05.

Substance: rhBMP-2: rhBMP-2 (300 ng/ml) was used as the reference of osteoblastogenesis inducer
- ALP mRNA level, fold change relative to the control: 11.12 ± 0.00^c fold
- BMP-2 mRNA level, fold change relative to the control: 1.45 ± 0.27^a fold
- BMP-4 mRNA level, fold change relative to the control: 1.04 ± 0.37 fold
- BMP-6 mRNA level, fold change relative to the control: 1.42 ± 0.35 fold
- BMP-7 mRNA level, fold change relative to the control: 2.85 ± 0.67^b fold
- BMP-9 mRNA level, fold change relative to the control: 2.00 ± 0.59^a fold
- OPN mRNA level, fold change relative to the control: 2.35 ± 0.41^a fold
- RUNX2 mRNA level, fold change relative to the control: 2.18 ± 0.48^a fold
